Assays:
Format in all cases: functional
[1] = Resistance index, ratio of IC50 for antimalarial activity against artemisinin-resistant Plasmodium flaciparum IPC4912 to IC50 for antimalarial activity against CQ-sensitive Plasmodium falciparum 3D7
[2] = Resistance index, ratio of IC50 for antimalarial activity against CQ-resistant Plasmodium flaciparum K1 to IC50 for antimalarial activity against CQ-sensitive Plasmodium falciparum 3D7
[3] = Resistance index, ratio of IC50 for antimalarial activity against CQ and mefloquine-resistant Plasmodium flaciparum DD2 to IC50 for antimalarial activity against CQ-sensitive Plasmodium falciparum 3D7

Measured: Ratio IC50

Cc1cc(Nc2ccc(S(=O)(=O)Nc3ccc(C(F)(F)F)cc3)cc2)n2nc(C(F)(F)F)nc2n1
< 1: [1] | [2] | [3]
